Laboratory results from ChEMBL document CHEMBL3638717, “Inhibitors of the renal outer medullary potassium channel” (2015).

Target: T1, ATP-sensitive inward rectifier potassium channel 1 (Rattus norvegicus, UniProt P35560)
T1 sequence (P35560 whole entry): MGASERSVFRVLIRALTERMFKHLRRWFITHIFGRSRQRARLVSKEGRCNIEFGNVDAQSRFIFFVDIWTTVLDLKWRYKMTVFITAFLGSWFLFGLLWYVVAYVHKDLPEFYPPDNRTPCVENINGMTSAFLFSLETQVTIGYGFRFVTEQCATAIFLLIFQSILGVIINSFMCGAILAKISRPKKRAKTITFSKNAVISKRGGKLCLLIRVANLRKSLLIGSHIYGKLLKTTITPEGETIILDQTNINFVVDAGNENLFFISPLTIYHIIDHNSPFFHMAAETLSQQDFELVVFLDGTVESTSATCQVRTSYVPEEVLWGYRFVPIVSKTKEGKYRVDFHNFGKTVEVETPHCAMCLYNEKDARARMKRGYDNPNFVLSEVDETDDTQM
Assay: Electrophysiology Assay: Block of Kir1.1 (ROMK1) currents was examined by whole cell voltage clamp (Hamill et. al. Pfluegers Archives 391:85-100 (1981)) using the IonWorks Quattro automated electrophysiology platform (Molecular Devices, Sunnyvale, Calif.). Chinese hamster ovary cells stably expressing Kir1.1 channels were maintained in T-75 flasks in cell culture media in a humidified 10% CO2 incubator at 37 C. Prior to an experiment, Kir1.1 expression was induced by overnight incubation with 1 mM sodium butyrate. On the day of the experiment, cells were dissociated with 2.5 mL of Versene (Invitrogen 15040-066) for approximately 6 min at 37 C. and suspended in 10 mL of bath solution containing (in mM): 150 NaCl, 10 KCl, 2.7 CaCl2, 0.5 MgCl2, 5 HEPES, pH 7.4. After centrifugation, the cell pellet was resuspended in approximately 4.0 mL of bath solution and placed in the IonWorks instrument. The intracellular solution consisted of (in mM): 80 K gluconate, 40 KCl, 20 KF, 3.2 MgCl2, 3 EGTA, 5 Hepes, pH 7.4.
Type: cell-based

## C[C@@H]1Cc2cc([C@H]3CN4CCN(C(=O)C5CCc6nc(-n7cnnn7)ccc65)C[C@H]4CO3)ccc2C(=O)O1 (single isomer, unassigned)
  IC50: 190 nM

## C[C@H]1Cc2c(ccc([C@@H]3CN4CCN(C(=O)C5CCc6nc(-n7cnnn7)ccc65)C[C@H]4CO3)c2F)C(=O)O1 (stereo partly specified)
  IC50: 100 nM

## O=C1OCCc2cc([C@@H]3CN4CCN(C(=O)C5CCc6nc(-n7cnnn7)ccc65)C[C@H]4CO3)ccc21 (single isomer, unassigned)
  IC50: 100 nM

## C[C@H]1Cc2cc([C@@H]3CN4CCN(C(=O)C5CCc6nc(-n7cnnn7)ccc65)C[C@H]4CO3)ccc2C(=O)O1 (stereo partly specified)
  IC50: 200 nM

## C[C@H]1Cc2cc([C@H]3CN4CCN(C(=O)C5CCc6nc(-n7cnnn7)ccc65)C[C@@H]4CO3)ccc2C(=O)O1 (stereo partly specified)
  IC50: 120 nM

## C[C@H]1Cc2c(ccc([C@@H]3CN4CCN(C(=O)C5CCc6nc(-n7cnnn7)ccc65)C[C@@H]4CO3)c2F)C(=O)O1 (stereo partly specified)
  IC50: 100 nM
